Assay results from article PMC3747818.

Chains of the proteins cited; added tags and fusions are not shown. Lines headed by an entry give the natural chain unless they say otherwise; changes in a name come on top.
UniProt Q9Y4X5: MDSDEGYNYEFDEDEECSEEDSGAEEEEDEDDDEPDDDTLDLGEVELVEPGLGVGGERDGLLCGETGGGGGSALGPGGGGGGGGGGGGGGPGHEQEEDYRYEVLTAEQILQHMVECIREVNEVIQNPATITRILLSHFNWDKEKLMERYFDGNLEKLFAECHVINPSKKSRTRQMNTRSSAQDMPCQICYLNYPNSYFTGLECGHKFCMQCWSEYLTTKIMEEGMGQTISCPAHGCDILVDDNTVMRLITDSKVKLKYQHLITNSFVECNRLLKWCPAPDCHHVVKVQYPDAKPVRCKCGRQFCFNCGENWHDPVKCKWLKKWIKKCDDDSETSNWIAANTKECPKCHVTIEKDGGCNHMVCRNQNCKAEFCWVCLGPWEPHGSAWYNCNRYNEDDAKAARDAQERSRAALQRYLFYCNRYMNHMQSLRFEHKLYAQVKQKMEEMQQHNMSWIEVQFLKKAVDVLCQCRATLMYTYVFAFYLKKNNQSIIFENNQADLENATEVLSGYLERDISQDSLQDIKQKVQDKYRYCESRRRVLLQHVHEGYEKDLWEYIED
UniProt P68036, whole entry: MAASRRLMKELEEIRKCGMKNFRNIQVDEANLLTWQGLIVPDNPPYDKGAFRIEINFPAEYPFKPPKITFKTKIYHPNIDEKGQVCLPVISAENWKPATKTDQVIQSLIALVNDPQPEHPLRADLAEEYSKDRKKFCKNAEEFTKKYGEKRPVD

Target: HHARIΔAriadne (deletion mutant of HHARI lacking the Ariadne domain) (human) (UniProt Q9Y4X5)
Assay: ITC

Kd: 190 nM
Substance: UbcH7 (from UniProt P68036 1-154) (enzyme)
